Reference: US12378224B2 (Dong-A Socio Holdings Co., Ltd., priority 2016, dated 2025)

Protein sequences, listed by entry. Tags and fused reporters are not part of them. Residues count along the entry.
UniProt Q12866, 21-999 limits assumed, stated change not applied: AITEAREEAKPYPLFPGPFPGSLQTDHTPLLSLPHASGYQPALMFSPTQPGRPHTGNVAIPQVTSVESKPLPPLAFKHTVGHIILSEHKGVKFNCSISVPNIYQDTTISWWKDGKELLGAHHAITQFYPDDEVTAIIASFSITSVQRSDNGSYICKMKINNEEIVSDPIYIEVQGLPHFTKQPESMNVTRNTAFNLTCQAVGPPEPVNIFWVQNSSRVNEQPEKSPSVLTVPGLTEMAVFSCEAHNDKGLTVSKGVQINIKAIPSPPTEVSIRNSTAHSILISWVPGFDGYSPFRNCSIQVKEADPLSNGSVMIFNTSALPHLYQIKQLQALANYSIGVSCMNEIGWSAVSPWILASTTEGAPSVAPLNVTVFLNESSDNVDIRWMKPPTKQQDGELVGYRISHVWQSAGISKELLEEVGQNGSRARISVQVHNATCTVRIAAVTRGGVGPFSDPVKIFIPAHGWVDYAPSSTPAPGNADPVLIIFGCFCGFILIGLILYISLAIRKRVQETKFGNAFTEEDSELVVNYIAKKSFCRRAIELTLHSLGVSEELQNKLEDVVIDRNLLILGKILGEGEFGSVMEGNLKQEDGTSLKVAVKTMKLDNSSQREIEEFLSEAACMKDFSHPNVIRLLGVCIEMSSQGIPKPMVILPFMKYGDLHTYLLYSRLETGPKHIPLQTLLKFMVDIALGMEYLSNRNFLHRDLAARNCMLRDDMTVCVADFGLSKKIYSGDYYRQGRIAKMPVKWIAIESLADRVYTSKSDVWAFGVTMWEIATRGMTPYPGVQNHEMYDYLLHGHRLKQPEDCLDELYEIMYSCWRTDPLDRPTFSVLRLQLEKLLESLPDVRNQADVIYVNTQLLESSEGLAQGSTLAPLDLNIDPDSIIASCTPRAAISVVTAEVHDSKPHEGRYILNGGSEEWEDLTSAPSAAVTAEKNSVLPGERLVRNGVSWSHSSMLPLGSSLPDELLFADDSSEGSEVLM
UniProt Q12866, 528-999 limits assumed: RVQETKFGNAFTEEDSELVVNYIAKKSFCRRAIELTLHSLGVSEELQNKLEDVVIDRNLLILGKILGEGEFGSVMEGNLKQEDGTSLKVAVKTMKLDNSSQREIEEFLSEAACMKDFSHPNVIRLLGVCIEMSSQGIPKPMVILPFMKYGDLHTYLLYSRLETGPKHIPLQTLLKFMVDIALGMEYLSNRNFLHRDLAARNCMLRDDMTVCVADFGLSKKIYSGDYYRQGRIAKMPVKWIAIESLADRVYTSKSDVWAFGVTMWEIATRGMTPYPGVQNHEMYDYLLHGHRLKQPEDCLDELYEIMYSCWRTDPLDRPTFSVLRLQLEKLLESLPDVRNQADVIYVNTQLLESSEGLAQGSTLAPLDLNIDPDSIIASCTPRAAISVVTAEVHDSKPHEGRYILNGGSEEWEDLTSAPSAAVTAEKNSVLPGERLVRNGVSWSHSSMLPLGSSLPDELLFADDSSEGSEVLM

Legend:
[1] = target: CD8-MerTK (Ba/F3-CDM cells) (Homo sapiens, UniProt Q12866); assay: In Cell MER Kinase Assay Using BaF3 Cellular System; type: cell-based; conditions: Ba/F3-CDM proliferation without IL-3, 48 hours, Celltiter-Glo
Description: CD8-MerTK is a chimeric fusion protein consisting of the extracellular and transmembrane domains of the human CD8α (amino acids 1 to 209) at its N-terminus and the kinase domain and intracellular parts of MerTK (amino acids 521-994) at its C-terminus. To establish an in cell kinase assay for MerTK kinase, the IL-3 dependent Ba/F3 cells of murine lymphoid origin was transfected with CD8-MerTK. The resulting Ba/F3-CDM line was then validated that Ba/F3-CDM cell proliferation is completely dependent on the activity of MerTK kinase activity when growing in the absence of IL-3. For a routine cellular assay, Ba/F3-CDM cells were seeded at 2,000 cells per well in 384-well cell culture plate containing DMEM/10% FBS culture media and incubated for 24 hours before addition of compounds pre-diluted in culture media. Following compound treatment, cells were further incubated for 48 hours and the proliferation was measured. […] Cell growth and proliferation was measured with Celltiter-Glo™ system (Promega, USA) according to the manufacturer's instruction. The half-maximal growth inhibitory concentration (GI50) value was calculated with Prism6.0 software (GraphPad, USA).

[2] = target: human MER (528-end) (Homo sapiens (Human), UniProt Q12866); assay: HTRF Kinase Activity Biochemical Assay (KinEASE-TK); conditions: 10 uM ATP
Experimental: For the SAR (structure-activity relationship) and compound screening, HTRF (Homogeneous Time Resolved Fluorescence) kinase activity assay was employed for all MER, AXL and TYRO3 kinases using Cisbio HTRF® KinEASE™-TK kit (Cisbio, USA). The kit includes biotin-labeled TK substrate, streptavidin-XL665, Eu3+-cryptate-labeled TK antibody and HTRF® Detection buffer. There are two main steps in the kinase assay: kinase reaction and detection of phosphorylated substrate. The reaction was carried out in white low volume 384-well plate (Corning, USA) with 25 nL compound in dimethyl sulfoxide in each well. To measure the compound mediated inhibition of kinase activity, 2.5 uL the recombinant kinases were pre-incubated with test compounds for 30 minutes in the kinase reaction buffer (20 mM HEPES pH7.4, 2 mM MnCl2, 10 mM MgCl2, 100 uM Na3VO4, 0.0075% Triton X 100, 0.005% BSA and 1 mM DTT) prior to the addition of 2.5 uL of 1 uM biotin-labeled TK substrates and 10 uM ATP. […] After 1 h incubation at room temperature, the fluorescence intensity was measured with Envision™ plate reader (PerkinElmer, USA). […] The level of kinase activity was quantified by the HTRF ratio that calculated from the intensity of emission at 665 nm and emission at 620 nm (fluorescence intensity @ 665 nm/fluorescence intensity @ 620 nm×10,000). […]

## 2-amino-N-43R)-1-(4′-((methyl((1-methylpiperidin-3-yl)methyl)amino)methyl)-[1,1′-biphenyl]-4-carbonyl)pyrrolidin-3-yl)-5-(1-methyl-1H-pyrazol-4-yl)nicotinamide [Example 548]
[1]
  IC50: > 1 µM
[2]
  IC50: > 1 µM
